According to patent publication US8591892B2, “FTY720 increases CD74 expression and sensitizes cancer cells to anti-CD74 antibody-mediated cell death” (The Ohio State University, priority 2011, dated 2013):

System: Jeko cells engrafted in SCID mice
Assay: Preclinical model of human MCL in SCID mice, survival
Format: in vivo, mouse
Conditions: n=10/group, from day 15; FTY720 5 mg/kg i.p. daily 2 weeks; antibodies 15 mg/kg i.p. every three days
Procedure: FIG. 5. Evaluation of in vivo therapeutic activity of FTY720 and milatuzumab in the preclinical MCL model. SCID mice were injected i.v. with 40×10^6 JeKo cells and observed daily for signs of tumor burden. The median survival for FTY720 and milatuzumab treated mice (N=10) was 36 days (95% CI:31-36), compared to 31 days for the FTY720 treated mice (95% CI:28-32) and 33.5 days for the milatuzumab treated mice (95% CI:23-34).
To examine the in vivo activity of FTY720 and milatuzumab, our previously described preclinical model of human MCL using the SCID mouse was used (Liu et al. 2010, Clin Cancer Res 16:3182-92). Six to eight-week old female SCID mice (cb17 scid/scid) were purchased from Taconic Farms (Hudson, N.Y.) and maintained in pathogen-free, isolation cages. All animals were depleted of murine NK cells with intra-peritoneal (i.p.) injections of 0.2 mg of rat anti-mouse interleukin-2 receptor β monoclonal antibody (TMβ1) 1 day prior to engraftment with human tumor cell lines and then every week. […] Animals were monitored daily for signs of tumor burden, including hind limb paralysis, respiratory distress, weight loss, ruffled coat, and distended abdomen. Body weight was measured weekly for the first 3 weeks and then daily. […]
We next evaluated the in vivo effect of FTY720 in combination with milatuzumab in a preclinical model of human MCL. […]

Q: With “trastuzumab: anti-ErbB2 antibody used as control” as the substance, how does the median survival read?
A: The median survival was 27 days.
